These results are taken from publication PMC10690091 (Cancer Research, 2023).

Sequences of proteins named here, by UniProt entry; tags and fusion partners are left off. Residues count along the entry.
UniProt P03372, 311-547 Y537S limits assumed: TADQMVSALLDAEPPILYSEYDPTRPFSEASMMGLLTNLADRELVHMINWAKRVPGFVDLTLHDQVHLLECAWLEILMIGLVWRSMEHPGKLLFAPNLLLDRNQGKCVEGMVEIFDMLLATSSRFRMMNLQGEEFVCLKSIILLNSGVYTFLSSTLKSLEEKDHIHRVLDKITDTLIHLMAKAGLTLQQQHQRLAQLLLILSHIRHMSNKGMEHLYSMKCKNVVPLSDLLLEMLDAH

For this experiment, the target named is Y537S mutant ERα ligand-binding domain (Homo sapiens, UniProt P03372, Y537S). The experiment can be described thus: LanthaScreen TR-FRET competition binding, Y537S. The note with it: Y537S ESR1m.

For `C[C@]12CC[C@@H]3c4ccc(O)cc4C[C@@H](CCCCCCCCC[S+]([O-])CCCC(F)(F)C(F)(F)F)[C@H]3[C@@H]1CC[C@@H]2O` (stereo partly shown) [fulvestrant, reference compound], the “binding affinity relative to ESR1wt” value is reported as “Some loss of affinity”.
